Results on 2 compounds are retold here after patent publication US20100256153A1, “METHODS FOR PREVENTING OR REDUCING RISK OF MORTALITY” (priority 2009, published 2010).

For test [1], the system named is subjects of pooled studies. The note with it: Fischer Exact Test, FIG. 11, per 100 comparator.
Test [2] concerns subjects of pooled studies. The test can be described thus: Ischemic serious adverse events (heart or brain related) in pooled studies, Fischer Exact Test analysis (FIG. 12). The class given is in vivo, human. As to conditions: FIG. 12, per 100 comparator. On the procedure:
Additional analyses were conducted to determine whether DPP-4 inhibitors have benefits associated with heart attack and stroke-like events. The saxagliptin data was analyzed using criteria similar to two published studies for sitagliptin (Amatruda et. al.) and vildagliptin (Kothney et. al.).
For sitagliptin the number would be 73 and vildagliptin 70. […] All three DPP-4 inhibitors have a “best estimate” (point estimate) that supports a class effect of lowering incidence of heart attack and stroke.

For `N#C[C@@H]1CCCN1C(=O)CNC12CC3CC(CC(O)(C3)C1)C2` [vildagliptin], the “death, subjects on drug died when 100 subjects on comparator treatment had died (point estimate)” value in test [1] is listed as 52 subjects.

With `N[C@@H](CC(=O)N1CCn2c(nnc2C(F)(F)F)C1)Cc1cc(F)c(F)cc1F` [sitagliptin], the “ischemic SAEs (heart attack or stroke-like events causing death, hospitalization, or near hospitalization), subjects on drug when 100 subjects on comparator had events” value in test [2] is 73 subjects. For the same compound, the “death, subjects on drug died when 100 subjects on comparator treatment had died (point estimate)” value in test [1] is listed as 55 subjects.
